In ChEMBL document CHEMBL1135203, “Benzodiazepine inhibitors of the MMPs and TACE” (Bioorg Med Chem Lett, 2002):

Target: Collagenase 3 (Homo sapiens, UniProt P45452)

Compound | IC50
COCC(=O)N1CC(C(=O)NO)N(S(=O)(=O)c2ccc(Oc3ccc(Cl)cc3)cc2)Cc2ccccc21 (configuration not stated) | 2 nM
O=C(NO)C1CN(C(=O)c2ccccc2)c2ccccc2CN1S(=O)(=O)c1ccc(Oc2ccc(Cl)cc2)cc1 (configuration not stated) | 2 nM
